Laboratory results from ChEMBL document CHEMBL1155122, “Design and optimization of aniline-substituted tetrahydroquinoline C5a receptor antagonists” (Bioorg Med Chem Lett, 2008).

Molecular target: T1, C5a anaphylatoxin chemotactic receptor 1 (Homo sapiens, UniProt P21730)
T1 sequence (P21730 whole entry): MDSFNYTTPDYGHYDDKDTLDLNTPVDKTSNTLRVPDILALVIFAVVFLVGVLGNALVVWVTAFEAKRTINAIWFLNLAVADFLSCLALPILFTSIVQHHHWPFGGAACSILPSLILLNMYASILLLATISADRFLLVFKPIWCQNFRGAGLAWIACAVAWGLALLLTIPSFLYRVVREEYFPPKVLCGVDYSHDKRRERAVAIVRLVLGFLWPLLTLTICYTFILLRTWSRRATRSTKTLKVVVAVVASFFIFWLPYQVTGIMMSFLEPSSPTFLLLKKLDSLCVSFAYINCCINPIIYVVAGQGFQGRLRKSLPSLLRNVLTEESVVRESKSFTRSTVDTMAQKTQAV
Assay: Antagonist activity at human recombinant C5a receptor in U937 cells assessed as inhibition of C5a-induced calcium mobilization by FLIPR assay
Type: functional, cell-based, U-937

## CCc1cccc(CC)c1-c1cc(OC)c2c(n1)CCCC2Nc1ccccc1C(F)(F)F (stereo unspecified)
  IC50: > 10 µM
